IC50 data for two compounds are collected here from patent US20230039917A1, “EXO-AZA SPIRO INHIBITORS OF MENIN-MLL INTERACTION” (Janssen Pharmaceutica NV, priority 2017, published 2023).

Chains of the proteins cited; added tags and fusions are not shown. A line that says so, or that is headed by a name, gives the form on record, which may keep a tag or linker. Residues count along the entry.
UniProt O00255, 1-610 with tags or gaps F410E/T541A: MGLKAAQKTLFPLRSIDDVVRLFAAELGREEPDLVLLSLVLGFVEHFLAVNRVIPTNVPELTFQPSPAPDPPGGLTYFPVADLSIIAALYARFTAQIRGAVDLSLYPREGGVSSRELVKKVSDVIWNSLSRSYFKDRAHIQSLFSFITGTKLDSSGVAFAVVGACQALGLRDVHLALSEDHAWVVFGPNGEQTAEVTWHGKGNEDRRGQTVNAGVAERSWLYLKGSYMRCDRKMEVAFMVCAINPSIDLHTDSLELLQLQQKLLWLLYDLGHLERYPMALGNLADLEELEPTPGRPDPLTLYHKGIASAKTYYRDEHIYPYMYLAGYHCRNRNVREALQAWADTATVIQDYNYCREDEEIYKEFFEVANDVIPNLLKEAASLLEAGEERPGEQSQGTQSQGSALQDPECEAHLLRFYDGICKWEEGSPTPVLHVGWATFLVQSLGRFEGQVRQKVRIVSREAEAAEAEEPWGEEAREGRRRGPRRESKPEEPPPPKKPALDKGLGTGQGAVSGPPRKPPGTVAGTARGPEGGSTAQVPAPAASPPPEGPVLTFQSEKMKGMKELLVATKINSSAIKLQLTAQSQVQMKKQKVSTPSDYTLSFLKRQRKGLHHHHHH

The structures appear in SMILES notation.

The IC50 is the point on the concentration scale where inhibition reaches its midpoint.

The experiment has as its target menin.FITC-MBM1 complex (terbium chelate-labeled menin) (Homo sapiens, UniProt O00255, F410E/T541A). Briefly: Menin/MLL homogenous time-resolved fluorescence (HTRF) assay. The settings on record: read-out: (2) location 2 Menin HTRF assay (IC50 (nM)).

As for `Cn1c(=O)[nH]c2ccc(CNC3CCC4(C3)CN(c3ncnc5sc(CC(F)(F)F)cc35)C4)cc21` (centres unmarked), the IC50 turned out to be 6.5 nM.
Take `CNC(=O)c1ccc(NC2CC3(CCN(c4ncnc5sc(CC(F)(F)F)cc45)C3)C2)c(C)c1` (single isomer, unassigned): the IC50 was found to be 4.2 nM.
